# Ab-14 light chain CDR variants: yeast mating affinities

Antigen: PDVDLGDISGINAS, a 14-residue peptide of the SARS-CoV-2 spike HR2 region.

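This is the validation round: designs drawn from the data on random variants, tested in the same kind of assay. Group labels follow the data file (Ctrl: baseline library sampled from a position-specific scoring matrix, with some repeated check sequences; Rand: our label for a block that the file lists under HC and that is probably the random mutants of the ten best first-round binders; GP: Gaussian process model; HC: hill climbing; Gen: genetic algorithm; Gibbs: Gibbs sampling; a sequence that several methods proposed may carry one label only). The scFvs were displayed on barcoded MATa yeast, the peptide on MATalpha yeast. Pairs that bind mate more often; barcode pairs of the diploids are counted by sequencing. The ratio of observed to expected reads was calibrated, replicate by replicate, on BCL2-family standards whose Kd was known from biolayer interferometry. Mating was done six times.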

Ab-14 is the parent antibody, in scFv form: VH, then three GGGGS repeats, then VL. The heavy chain is unchanged in all variants.
VH: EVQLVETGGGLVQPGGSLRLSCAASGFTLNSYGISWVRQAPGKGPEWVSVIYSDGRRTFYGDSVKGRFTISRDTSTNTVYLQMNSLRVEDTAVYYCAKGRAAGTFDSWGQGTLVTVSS
VL: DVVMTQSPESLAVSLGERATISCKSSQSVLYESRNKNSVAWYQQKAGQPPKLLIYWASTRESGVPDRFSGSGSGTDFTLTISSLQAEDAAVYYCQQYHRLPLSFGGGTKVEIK

Changes read parent residue, position, new residue, counted from the first residue of the VL shown.
Variants here have at most six changes.
Values are apparent Kd, the geometric mean of the replicates that gave a signal; lower means stronger binding.
A pair that was not seen in any replicate is written "nd"; this usually means weak binding, but a binder can also be missed.

The variant W56F+R99H [Ctrl] gave 24 nM (6 of 6 replicates). The variant Q27W+R34G+W56H+E61L+S62D [GP_HC] gave 4.0 nM (6 of 6 replicates). For S28E+E32F+N35E+Y97P [Ctrl], the assay gave 71 nM (1 of 6 replicates). For S25L+S28Q+V29W+W56N [GP_Gen], the assay gave 1.1 nM (6 of 6 replicates). With S25V+V29W+W56N+E61M [GP_Gen] the result was 390 pM (6 of 6 replicates). For S25Q+V29D+S38N+W56D [GP_HC], the assay gave 2.0 nM (6 of 6 replicates). With Y31D+R99W [Ctrl] the result was 16 nM (5 of 6 replicates). The variant Q27M+V29Y+W56G [GP_HC] gave 1.0 nM (6 of 6 replicates). For K24Q+V29D+W56G [GP_HC], the assay gave 1.3 nM (6 of 6 replicates).

The variant S25V+S26L+W56H+S62D+R99Q [GP_HC] showed 1.0 nM (6 of 6 replicates). The variant S38P+W56M [Ctrl] showed 5.6 nM (6 of 6 replicates). For S25L+S26E+Q27N+V29T+N35Q [GP_HC], the assay gave 18 nM (6 of 6 replicates). For S25L+S26P+Y31D+N37A [Ctrl], the assay gave 1.6 nM (6 of 6 replicates). For S26R+W56A [Ctrl], the assay gave 6.7 nM (6 of 6 replicates). For S25L+K36P+W56N+S62M [GP_Gen], the assay gave 780 pM (6 of 6 replicates). The variant S25L+S28M+W56D [GP_Gen] showed 1.0 nM (6 of 6 replicates). With V29Q+L30S+R34E+W56D [Ctrl] the result was 790 pM (6 of 6 replicates). The variant S25F+W56N+S62K [GP_HC] showed 590 pM (6 of 6 replicates).

The variant S25L+V29E+W56N+E61Y [GP_Gen] showed 800 pM (6 of 6 replicates). For S25Q+S28D+V29W+S33G+R34T+W56E [Ctrl], the assay gave 720 pM (6 of 6 replicates). The variant S25M+S28M+N35Y+K36D+R60H+S62L [Ctrl] gave nd (0 of 6 replicates). For Y31F+A40S+W56D+S58W [Rand], the assay gave 4.5 nM (6 of 6 replicates). The variant E32M+S38G+W56G [Ctrl] gave 16 nM (6 of 6 replicates). The variant Q27I+V29S+W56A [GP_HC] gave 1.3 nM (6 of 6 replicates). With Y31H+N37Q+S38C+W56S [Ctrl] the result was 190 nM (2 of 6 replicates). For S26Q+S38N+W56H+S62D+H98W [GP_HC], the assay gave 540 pM (6 of 6 replicates). With S25V+N37Q+W56D+E61S [GP_HC] the result was 780 pM (6 of 6 replicates).

For S26M+T59I+H98M [Ctrl], the assay gave 5.4 nM (6 of 6 replicates). The variant S25V+V29F+S33Q+W56D [GP_Gen] showed 590 pM (6 of 6 replicates). The variant S25L+S26Q+V29E+W56D [GP_Gen] showed 860 pM (6 of 6 replicates). The variant S25T+S28A+V29F+W56D+S58N [GP_HC] showed nd (0 of 6 replicates). For L30D+Y31R+W56D [GP_HC], the assay gave 1.4 nM (6 of 6 replicates). The variant N35M+K36H+W56A+Q96T [Ctrl] showed 11 nM (6 of 6 replicates). The variant S33D+Y97C [Ctrl] gave nd (0 of 6 replicates). With S25L+V29Y+L30E+W56N+T59Q+S62C [GP_Gibbs] the result was 1.1 nM (6 of 6 replicates). With S25I+V29T+N35G+W56N [Ctrl] the result was 480 pM (6 of 6 replicates).

For S25L+V29N+W56N+E61M+S62Q [GP_Gen], the assay gave 680 pM (6 of 6 replicates). The variant S25L+S26G+S28G+K36W+W56G [GP_HC] showed 1.7 nM (6 of 6 replicates). The variant S25V+S26L+Q27W+R34N+W56H+S62D [GP_HC] gave 1.3 nM (6 of 6 replicates).

Extract of 6 entries:

{"changes": "S25L+V29N+W56N+E61M+S62Q", "group": "GP_Gen", "Kd": "680 pM", "detected": "6/6"}
{"changes": "S26R+W56A", "group": "Ctrl", "Kd": "6.7 nM", "detected": "6/6"}
{"changes": "S25V+S26L+Q27W+R34N+W56H+S62D", "group": "GP_HC", "Kd": "1.3 nM", "detected": "6/6"}
{"changes": "W56F+R99H", "group": "Ctrl", "Kd": "24 nM", "detected": "6/6"}
{"changes": "Q27I+V29S+W56A", "group": "GP_HC", "Kd": "1.3 nM", "detected": "6/6"}
{"changes": "S25L+S26G+S28G+K36W+W56G", "group": "GP_HC", "Kd": "1.7 nM", "detected": "6/6"}

The range of this assay differs from that of the first round, and the authors advise against merging the two.
In the paper, a design with two or fewer of six values counts as a poor binder.
Of ten entries with the parent sequence, four were seen in most replicates (averages 2.2 nM to 240 nM), three in one and three in none, so single entries are noisy.
Background: pairings of all light chain designs with three empty control strains gave a value in 4% of cases (median 430 nM, 5th percentile 38 nM). Values in that range, when seen in few replicates, are hard to tell from nonspecific mating.

From the AlphaSeq antibody data of Li et al. 2023 (doi:10.1038/s41467-023-39022-2), copy in the FLAb collection.